Laboratory results as given in patent US5912270A, “Anti-inflammatory compounds” (SmithKline Beecham Corporation, priority 1996, dated 1999).

System: CoA-IT
Experiment: Assay (b): microsomal CoA-IT activity assay
Format: biochemical, human
Settings: at concentrations up to 500 μM; U937 microsomes
Description: The following is a method to measure CoA-IT activity and the effects of compounds on CoA-IT activity. The assay is based upon mixing cellular material containing CoA-IT activity with a stable lyso phospholipid such as […] and measuring the production of phospholipid product such as […] occurring in the absence of added CoA or CoA-fatty acids.
Any inflammatory cell that contains high levels of CoA-IT activity can be used, such as neutrophils, macrophages or cell lines such as U937 cells. […] Cells were grown without differentiation (basal state) by any agent, such as dimethyl sulfoxide. As used herein, "inflammatory cells" include, but are not limited to neutrophils, macrophages, monocytes, lymphocytes, eosinophils, basophils, and mast cells.
Microsomes were prepared using standard techniques. In this case, cells were washed with a buffer of 250 mM sucrose, 10 mM Tris, 1 mM EGTA, 1 mM MgCl2, pH 7.4 and ruptured by N2 cavitation (750 psi, 10 minutes). The ruptured cells were centrifuged 1000×g, 5 minutes. The resulting supernatant was centrifuged at 20,000×g,~20 minutes. Microsomes were prepared from this supernatant by centrifugation at 100,000×g, 60 minutes. […]
CoA-IT activity was measured in 1.5 ml centrifuge tubes in a total volume of 100 ul. […] 1-alkyl-2-acyl-GPC, was scraped and quantified by liquid scintillation spectroscopy. […]

Structure (SMILES): O=C(O)Cc1ccccc1Nc1c(Cl)cccc1Cl [Sodium diclofenac]
- effect on CoA-IT activity: no effect
